Tested on: ASD aggression toward others or self and paranoia/social isolation

Structure (SMILES): Cc1nc2n(c(=O)c1CCN1CCC(c3noc4cc(F)ccc34)CC1)CCCC2 [risperidone]
- dyskinesia / tardive dyskinesia and dystonias (Example 1: ASD person): caused development of dyskinesia and dystonias
- time to development of dyskinesia and dystonias (Example 1: ASD person, on risperidone): ≤ 2 weeks
- tardive dyskinesia (Example 2: ASD person): developed tardive dyskinesia
- tardive dyskinesia / dystonic side effects (summary over the ASD subjects, long-term use (two years for the antipsychotics)): developed tardive dyskinesia
